From publication PMC3552326

Molecular target: glucocerebrosidase (taliglucerase alfa, recombinant GCase) (human) (UniProt P04062)

maximal inhibition of GCase activity (4MU-β-Glu, POPC/POPS vesicles): 76%
Substance: α-synuclein, wild type (from UniProt P37840 1-140) (natural protein)
